Test results taken from patent US9546176B2, “Small molecule bicyclic and tricyclic CFTR correctors” (DISCOVERYBIOMED, INC., priority 2012, dated 2017).

Amino acid sequences for entries named in this document (tags omitted). Chains listed by the source or under a name are the forms on record and can include a tag or linker.
UniProt P13569, with tags, fused parts or gaps DEL508-508: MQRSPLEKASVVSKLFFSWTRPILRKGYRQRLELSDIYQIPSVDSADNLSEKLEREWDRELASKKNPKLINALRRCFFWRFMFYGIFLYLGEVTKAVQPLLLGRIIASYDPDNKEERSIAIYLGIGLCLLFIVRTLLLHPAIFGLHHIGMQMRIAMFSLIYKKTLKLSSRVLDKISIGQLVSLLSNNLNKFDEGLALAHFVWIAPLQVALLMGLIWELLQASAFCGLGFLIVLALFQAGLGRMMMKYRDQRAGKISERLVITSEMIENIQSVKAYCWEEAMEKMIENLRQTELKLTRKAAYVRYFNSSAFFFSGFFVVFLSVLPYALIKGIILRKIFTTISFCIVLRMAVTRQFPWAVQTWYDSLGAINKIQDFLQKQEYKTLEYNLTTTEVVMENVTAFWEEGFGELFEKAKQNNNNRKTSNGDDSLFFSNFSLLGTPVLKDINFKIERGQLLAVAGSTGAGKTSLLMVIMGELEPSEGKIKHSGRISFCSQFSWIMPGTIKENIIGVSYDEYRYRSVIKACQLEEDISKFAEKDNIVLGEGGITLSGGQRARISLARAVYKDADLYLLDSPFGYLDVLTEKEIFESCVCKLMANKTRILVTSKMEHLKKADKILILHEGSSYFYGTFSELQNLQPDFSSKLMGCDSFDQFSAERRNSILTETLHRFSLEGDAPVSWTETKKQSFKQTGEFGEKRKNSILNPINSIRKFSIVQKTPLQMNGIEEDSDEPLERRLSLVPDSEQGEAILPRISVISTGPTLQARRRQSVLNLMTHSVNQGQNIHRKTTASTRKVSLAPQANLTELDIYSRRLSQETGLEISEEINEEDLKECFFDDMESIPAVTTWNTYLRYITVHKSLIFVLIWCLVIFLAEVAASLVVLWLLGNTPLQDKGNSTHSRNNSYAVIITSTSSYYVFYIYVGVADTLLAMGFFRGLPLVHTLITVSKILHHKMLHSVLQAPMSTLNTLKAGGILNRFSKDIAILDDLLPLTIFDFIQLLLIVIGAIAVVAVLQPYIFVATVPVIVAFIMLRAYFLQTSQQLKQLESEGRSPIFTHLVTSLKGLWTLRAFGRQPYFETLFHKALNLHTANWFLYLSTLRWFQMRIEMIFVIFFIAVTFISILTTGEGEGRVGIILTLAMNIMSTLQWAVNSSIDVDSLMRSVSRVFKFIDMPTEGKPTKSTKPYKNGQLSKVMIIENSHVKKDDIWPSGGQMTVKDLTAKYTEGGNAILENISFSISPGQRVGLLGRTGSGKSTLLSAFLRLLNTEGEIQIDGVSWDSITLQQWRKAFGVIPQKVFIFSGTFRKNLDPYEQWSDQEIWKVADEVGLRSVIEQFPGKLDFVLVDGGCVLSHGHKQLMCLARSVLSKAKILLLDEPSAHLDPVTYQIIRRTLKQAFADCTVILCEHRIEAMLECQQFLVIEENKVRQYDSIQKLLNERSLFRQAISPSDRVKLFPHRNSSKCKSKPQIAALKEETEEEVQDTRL

Biological target: delF508-CFTR (Homo sapiens, UniProt P13569, DEL508-508)
Test: SPQ halide-sensitive fluorescence dye assay for rescue of halide efflux (8-point concentration-response)
Type: cell-based
Conditions: CFBE41o- cells, 48 h
Protocol: The method of profiling can include detecting the rescue of halide efflux from a cell. The step of detecting a rescue of halide efflux from the cell can be monitored using the halide quenched dye 6-methoxy-N-(3-sulfopropyl)-quinolinium (SPQ, Molecular Probes Inc., Eugene, Oreg.). In this method, cells are treated with a compound as described herein for a period of time (e.g., 48 hours). The rescue or correction of halide efflux is then detected using the SPQ assay with the halide dye. […] Optionally, the halide efflux is chloride efflux. The method of screening can further comprise performing the method with multiple concentrations of the compound.
The compounds were initially subjected to the SPQ halide-sensitive fluorescence dye profiling assay for rescue or correction of membrane chloride ion permeability or transport with an 8-point concentration-response curve. The EC50 values for the compounds described herein were determined using SPQ (Table 1). The ΔSPQ value was calculated by determining the difference between the maximum and minimum SPQ values for the compounds.
To perform the SPQ high throughput screening assay, CFBE41o-cells were seeded into 96-well microtiter plates and were loaded with the fluorescent halide-sensitive dye, SPQ, in serum-containing culture medium. […] The plates were read twice over four minutes. […] The plate was read up to two times to complete the SPQ HTS assay.

## Cn1c(=O)c2[nH]c(NCCN3CCOCC3)nc2n(C)c1=O
  SPQ EC50: No effect
